Molecular target: T1, human KOP receptor (Homo sapiens, UniProt P41145)
T1 construct: expressed in transfected cells; host or cells: CHO-hKOP cells (gift of Dr. Lawrence Toll, SRI International)
Test: Competition binding assay, CHO-hKOP cell membranes, [3H]U69,593
Settings: for selectivity DOP/KOP: Ki ratio DOP/KOP; for selectivity MOP/KOP: Ki ratio MOP/KOP
Protocol: CHO cells stably expressing recombinant human KOP, MOP, or DOP receptors (CHO-hKOP, CHO-hMOP, and CHO-hDOP cell lines) were kindly provided by Dr. Lawrence Toll (SRI International, Menlo Park, CA). The CHO-hKOP cell line was maintained in Dulbecco’s Minimal Essential Medium (DMEM) supplemented with fetal bovine serum (FBS, 10%), penicillin/streptomycin (0.1%), L-glutamine (2 mM), and geneticin (400 μg/mL). The CHO-hMOP and CHO-hDOP cell lines were maintained in DMEM/Ham’s F-12 medium supplemented with FBS (10%), penicillin/streptomycin (0.1%), L-glutamine (2 mM), and geneticin (400 μg/mL). Cell cultures were maintained at 37 °C in 5% CO2 humidified air.
. Nonspecific binding was determined using 1–10 μM of the unlabeled counterpart of each radioligand. Assays were performed in 50 mM Tris-HCl buffer (pH 7.4) in a final volume of 1 mL. Cell membranes (15–20 μg) were incubated with the appropriate radioligand and various concentrations of test compound for 60 min at 25 °C. After incubation, reactions were terminated by rapid filtration through Whatman glass fiber filters. Filters were washed three times with 5 mL of ice-cold 50 mM Tris-HCl buffer (pH 7.4) using a Brandel M24R cell harvester (Gaithersburg, MD). Radioactivity retained on the filters was counted by liquid scintillation counting using a Beckman Coulter LS6500 (Beckman Coulter Inc., Fullerton, CA). All binding experiments were performed in duplicate and repeated at least three times. The inhibitory constant Ki values (in nM) were calculated from the competition binding curves by nonlinear regression analysis and the Cheng–Prusoff equation.[16]

## Cl.Oc1ccc(CCN(CCc2cccc(O)c2)CC2CCCCC2)cc1 [Compound 15, 3-[2-[(Cyclohexylmethyl)(4-hydroxyphenethyl)amino]ethyl]phenol Hydrochloride]
  selectivity DOP/KOP: 885
  selectivity MOP/KOP: 126

## Cl.Oc1cccc(CCN(CCc2ccccc2)CC2CCCCC2)c1F [Compound 19, 3-[2-[(Cyclohexylmethyl)(phenethyl)amino]ethyl]-2-fluorophenol Hydrochloride]
  selectivity DOP/KOP: >250000
  selectivity MOP/KOP: 21275

Reference: paper PMC5601360 (Journal of Medicinal Chemistry, 2017)
